Measured values taken from patent US20130123326A1, “ALLOSTERIC BINDING COMPOUNDS” (REGION MIDTJYLLAND, priority 2009, published 2013).

The chains behind the UniProt entries cited, without tags or fusion partners.
UniProt P31645, whole entry: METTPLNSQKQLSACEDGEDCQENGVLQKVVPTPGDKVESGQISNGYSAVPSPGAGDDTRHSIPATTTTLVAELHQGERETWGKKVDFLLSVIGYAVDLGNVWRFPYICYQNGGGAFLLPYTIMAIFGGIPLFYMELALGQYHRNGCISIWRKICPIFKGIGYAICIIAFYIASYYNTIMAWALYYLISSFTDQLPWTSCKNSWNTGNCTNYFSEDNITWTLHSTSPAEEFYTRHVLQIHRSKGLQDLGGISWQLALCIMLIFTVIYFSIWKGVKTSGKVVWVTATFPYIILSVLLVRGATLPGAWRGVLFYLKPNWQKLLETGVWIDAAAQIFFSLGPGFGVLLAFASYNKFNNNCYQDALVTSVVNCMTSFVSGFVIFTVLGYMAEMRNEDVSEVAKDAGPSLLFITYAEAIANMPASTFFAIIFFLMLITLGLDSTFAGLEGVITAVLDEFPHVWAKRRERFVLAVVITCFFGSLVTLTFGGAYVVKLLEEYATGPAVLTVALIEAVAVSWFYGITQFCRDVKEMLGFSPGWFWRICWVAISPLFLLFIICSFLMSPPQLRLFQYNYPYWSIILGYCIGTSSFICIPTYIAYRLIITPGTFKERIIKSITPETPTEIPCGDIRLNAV

Biological target: hSERT (Homo sapiens, UniProt P31645)
Assay: Dissociation assay with [3H]-citalopram and hSERT membrane preparations
Assay type: binding
Description: Dulbecco's modified Eagle's medium, fetal bovine serum, trypsin, and penicillin/streptomycin were purchased from Invitrogen. Cell culture flasks were from NUNC. MicroScint-20 scintillation mixture was from Packard. [^3H]-Citalopram (85 Ci/mmol) was a gift from H. Lundbeck A/S (Valby, Denmark). Fugene-6 transfection reagent was from Roche Molecular Biochemicals. All chemicals are commercially available. Stock solutions of the allosteric ligands were prepared as 100 mM in EtOH.
Cell Culture and Expression of hSERT in HEK-293 MSR cells.
HEK-293 MSR cells were maintained in Dulbecco's modified Eagle's medium (DMEM) supplemented with 10% fetal calf serum, 0.1 mM nonessential amino acids, 600 μg/mL Geneticin, 100 μg/ml streptomycin, and 100 units/ml penicillin at 37° C. and 5% CO2 in a humidified atmosphere. The pcDNA3 plasmid vector containing the hSERT gene was used for transfection. […]
SERT-[^3H]-citalopram complex was formed by incubating hSERT membrane preparation and radioligand in buffer 3 during a 60 min incubation at 4° C. […] Bound radioactivity was determined by direct counting of plates using a Packard Bell microplate scintillation counter. […]
The relative off-rate is expressed as the off-rate of the radioligand at a given concentration of allosteric compound, normalized to the off-rate of radioligand in the absence of allosteric compound. […]

2-Dimethylaminoethyl-1-Naphthyl Sulfide [Example 19]
EC50 (concentration of allosteric compound inducing 50% attenuation of the off-rate of the radioligand from SERT, 10 μM fluoxetine in dissociation buffer): 6.4 µM | Max. Stability (maximum stabilization factor) (estimated upper plateau of sigmoidal response curve: how many folds the off-rate of bound radioligand from SERT can be attenuated, N/A = No activity): 5.8
